Measured values as given in patent US8501446B2 (Vertex Pharmaceuticals Incorporated, priority 2004, dated 2013).

By UniProt entry, the sequences of proteins in these tests, tags left out. Residues count along the entry.
UniProt O60674, whole entry: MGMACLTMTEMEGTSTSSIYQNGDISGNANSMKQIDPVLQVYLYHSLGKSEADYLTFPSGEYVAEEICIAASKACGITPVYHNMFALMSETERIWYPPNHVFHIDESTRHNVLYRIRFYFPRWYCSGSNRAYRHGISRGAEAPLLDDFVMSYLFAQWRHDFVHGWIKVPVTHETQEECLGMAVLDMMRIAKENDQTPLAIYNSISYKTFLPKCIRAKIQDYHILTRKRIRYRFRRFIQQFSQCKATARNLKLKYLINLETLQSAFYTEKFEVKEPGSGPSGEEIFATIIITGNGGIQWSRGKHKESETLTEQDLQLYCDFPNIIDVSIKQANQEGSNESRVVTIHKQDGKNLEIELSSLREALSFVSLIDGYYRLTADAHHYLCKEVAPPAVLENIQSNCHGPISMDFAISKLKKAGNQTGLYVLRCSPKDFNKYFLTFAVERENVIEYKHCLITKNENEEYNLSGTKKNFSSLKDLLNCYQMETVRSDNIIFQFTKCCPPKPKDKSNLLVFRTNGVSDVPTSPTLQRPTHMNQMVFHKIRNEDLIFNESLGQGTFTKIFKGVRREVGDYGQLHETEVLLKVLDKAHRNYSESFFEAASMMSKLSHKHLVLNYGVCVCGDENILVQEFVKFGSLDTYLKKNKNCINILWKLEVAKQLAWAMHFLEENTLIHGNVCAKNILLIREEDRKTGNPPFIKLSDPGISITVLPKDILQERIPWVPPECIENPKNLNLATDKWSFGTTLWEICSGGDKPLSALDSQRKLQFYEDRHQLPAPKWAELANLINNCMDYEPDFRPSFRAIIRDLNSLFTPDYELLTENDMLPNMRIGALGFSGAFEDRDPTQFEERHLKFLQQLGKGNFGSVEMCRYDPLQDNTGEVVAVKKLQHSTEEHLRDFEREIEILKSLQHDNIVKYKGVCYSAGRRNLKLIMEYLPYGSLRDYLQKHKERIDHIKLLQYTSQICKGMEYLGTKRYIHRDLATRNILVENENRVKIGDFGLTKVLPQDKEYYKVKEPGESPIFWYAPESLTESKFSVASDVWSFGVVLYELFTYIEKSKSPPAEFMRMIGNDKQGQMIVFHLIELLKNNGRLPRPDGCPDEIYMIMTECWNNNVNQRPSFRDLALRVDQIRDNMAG
UniProt P52333, whole entry: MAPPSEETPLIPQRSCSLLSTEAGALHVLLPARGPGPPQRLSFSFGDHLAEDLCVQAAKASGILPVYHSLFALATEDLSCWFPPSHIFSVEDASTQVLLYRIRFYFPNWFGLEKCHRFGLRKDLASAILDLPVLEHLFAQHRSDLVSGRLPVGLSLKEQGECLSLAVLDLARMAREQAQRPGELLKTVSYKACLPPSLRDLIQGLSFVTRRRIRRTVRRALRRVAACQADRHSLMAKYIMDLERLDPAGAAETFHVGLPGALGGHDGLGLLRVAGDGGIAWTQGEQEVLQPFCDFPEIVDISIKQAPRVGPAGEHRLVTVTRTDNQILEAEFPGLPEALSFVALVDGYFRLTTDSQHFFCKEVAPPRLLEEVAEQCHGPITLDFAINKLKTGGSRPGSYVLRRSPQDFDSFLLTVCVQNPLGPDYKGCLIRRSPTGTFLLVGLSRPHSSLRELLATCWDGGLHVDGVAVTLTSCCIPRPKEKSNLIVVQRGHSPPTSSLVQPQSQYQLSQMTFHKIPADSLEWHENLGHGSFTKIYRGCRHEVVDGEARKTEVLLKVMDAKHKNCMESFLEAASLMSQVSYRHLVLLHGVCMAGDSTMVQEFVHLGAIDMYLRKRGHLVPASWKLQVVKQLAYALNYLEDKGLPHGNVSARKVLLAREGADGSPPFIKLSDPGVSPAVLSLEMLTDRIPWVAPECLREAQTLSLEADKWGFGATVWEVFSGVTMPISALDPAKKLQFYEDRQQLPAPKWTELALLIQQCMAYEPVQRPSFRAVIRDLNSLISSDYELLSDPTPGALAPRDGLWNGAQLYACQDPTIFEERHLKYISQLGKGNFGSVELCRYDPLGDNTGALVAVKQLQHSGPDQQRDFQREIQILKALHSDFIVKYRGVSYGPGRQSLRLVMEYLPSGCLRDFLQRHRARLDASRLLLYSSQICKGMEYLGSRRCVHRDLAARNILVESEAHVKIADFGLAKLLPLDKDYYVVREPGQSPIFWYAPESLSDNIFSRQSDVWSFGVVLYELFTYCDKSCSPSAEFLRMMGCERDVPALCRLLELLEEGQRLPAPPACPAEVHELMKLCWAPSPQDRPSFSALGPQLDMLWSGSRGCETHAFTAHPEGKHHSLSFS
UniProt O14965, whole entry: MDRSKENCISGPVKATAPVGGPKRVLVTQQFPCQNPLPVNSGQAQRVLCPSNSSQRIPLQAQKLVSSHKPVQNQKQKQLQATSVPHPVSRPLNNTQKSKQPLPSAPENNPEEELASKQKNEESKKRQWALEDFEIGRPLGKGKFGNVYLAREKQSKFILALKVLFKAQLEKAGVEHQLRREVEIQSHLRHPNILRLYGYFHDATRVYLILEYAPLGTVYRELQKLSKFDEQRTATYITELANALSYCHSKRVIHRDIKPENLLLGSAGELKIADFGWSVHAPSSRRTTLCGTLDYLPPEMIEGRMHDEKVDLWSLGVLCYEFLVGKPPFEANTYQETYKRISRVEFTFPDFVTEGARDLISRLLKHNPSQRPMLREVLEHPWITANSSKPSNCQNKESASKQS
UniProt Q13464, 6-553 limits assumed: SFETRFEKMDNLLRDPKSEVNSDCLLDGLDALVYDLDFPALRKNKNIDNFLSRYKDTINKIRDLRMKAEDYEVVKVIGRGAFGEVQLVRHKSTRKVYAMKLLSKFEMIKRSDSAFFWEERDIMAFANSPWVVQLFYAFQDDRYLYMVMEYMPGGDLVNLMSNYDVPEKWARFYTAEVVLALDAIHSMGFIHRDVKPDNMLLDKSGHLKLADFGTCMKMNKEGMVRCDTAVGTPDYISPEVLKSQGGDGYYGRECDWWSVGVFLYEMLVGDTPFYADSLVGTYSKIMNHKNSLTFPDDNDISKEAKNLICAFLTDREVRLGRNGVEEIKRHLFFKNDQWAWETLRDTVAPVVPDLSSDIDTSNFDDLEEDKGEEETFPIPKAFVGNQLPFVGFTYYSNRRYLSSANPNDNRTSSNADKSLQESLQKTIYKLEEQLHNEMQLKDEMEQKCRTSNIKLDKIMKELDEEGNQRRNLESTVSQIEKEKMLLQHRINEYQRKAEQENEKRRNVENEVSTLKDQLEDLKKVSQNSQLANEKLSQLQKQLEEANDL
UniProt Q13464, whole entry: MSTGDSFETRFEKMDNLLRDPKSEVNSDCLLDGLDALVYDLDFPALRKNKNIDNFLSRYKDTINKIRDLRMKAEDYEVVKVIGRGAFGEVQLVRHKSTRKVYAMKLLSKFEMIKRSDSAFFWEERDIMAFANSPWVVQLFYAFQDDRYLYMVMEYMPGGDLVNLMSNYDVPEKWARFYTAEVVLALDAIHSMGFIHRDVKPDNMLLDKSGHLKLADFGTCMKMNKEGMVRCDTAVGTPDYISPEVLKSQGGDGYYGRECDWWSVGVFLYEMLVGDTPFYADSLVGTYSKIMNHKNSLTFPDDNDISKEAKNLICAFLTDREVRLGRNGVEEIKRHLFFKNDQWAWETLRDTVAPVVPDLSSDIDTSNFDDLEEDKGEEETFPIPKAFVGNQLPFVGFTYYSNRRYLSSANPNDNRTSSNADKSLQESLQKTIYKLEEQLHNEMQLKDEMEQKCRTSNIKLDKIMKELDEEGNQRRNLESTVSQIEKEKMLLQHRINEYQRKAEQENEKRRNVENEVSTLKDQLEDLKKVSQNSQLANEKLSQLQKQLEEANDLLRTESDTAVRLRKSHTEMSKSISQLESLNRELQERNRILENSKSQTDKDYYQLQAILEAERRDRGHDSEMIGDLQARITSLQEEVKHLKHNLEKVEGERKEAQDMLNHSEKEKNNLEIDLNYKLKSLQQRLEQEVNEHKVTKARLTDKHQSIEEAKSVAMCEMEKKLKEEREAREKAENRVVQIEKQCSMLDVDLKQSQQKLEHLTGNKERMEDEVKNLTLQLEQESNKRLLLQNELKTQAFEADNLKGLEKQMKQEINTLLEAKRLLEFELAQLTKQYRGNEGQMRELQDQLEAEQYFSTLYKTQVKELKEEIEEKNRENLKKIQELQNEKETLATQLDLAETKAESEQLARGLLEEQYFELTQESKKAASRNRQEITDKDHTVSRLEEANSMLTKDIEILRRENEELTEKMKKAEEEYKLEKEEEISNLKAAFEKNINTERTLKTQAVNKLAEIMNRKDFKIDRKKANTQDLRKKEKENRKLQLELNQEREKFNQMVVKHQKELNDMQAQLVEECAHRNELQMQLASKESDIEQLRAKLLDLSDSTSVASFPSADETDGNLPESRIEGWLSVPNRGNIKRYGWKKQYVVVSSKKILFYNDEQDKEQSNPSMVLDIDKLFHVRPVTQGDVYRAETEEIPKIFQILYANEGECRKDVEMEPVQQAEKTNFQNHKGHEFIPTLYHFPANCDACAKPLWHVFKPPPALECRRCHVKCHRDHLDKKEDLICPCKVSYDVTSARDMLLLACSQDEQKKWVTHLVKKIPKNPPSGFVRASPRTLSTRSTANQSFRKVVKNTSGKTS

Tests used:
Format in all cases: biochemical
JAK2 = JAK2 (Homo sapiens, UniProt O60674); experiment: JAK2 inhibition assay (radioactive enzyme assay, as for JAK3); conditions: read-out: JAK2 Ki; average Ki if more than one value determined
Protocol: (§1) Compounds were screened for their ability to inhibit JAK3 using a standard radioactive enzyme assay. 1.5 μL/well of a DMSO stock containing serial dilutions of a compound of the present invention (concentrations ranging from 667 μM to 46 nM) was placed in a 96 well polycarbonate plate. 50 μL per well of kinase buffer (100 mM HEPES (pH 7.4), 10 mM MgCl2, 25 mM NaCl, 1 mM DTT, and 0.01% bovine serum albumin (BSA)) containing 2 μM poly(Glu)4Tyr and 10 μM ATP was also added to the plate. To initiate the reaction, 50 μL kinase buffer containing 2 nM JAK3 enzyme was added. Final ATP concentration was 5 μM [γ-^33P] ATP (200 μCi ^33P ATP/μmol ATP (Perkin Elmer, Cambridge, Mass.). After 20 minutes at room temperature (25° C.), the reaction was stopped by adding 50 μL 20% trichloroacetic acid (TCA)/0.4 mM ATP to each well. The entire content of each well was then transferred to a 96 well glass fiber filter plate using a TomTek Cell Harvester. After washing, 60 μL scintillation fluid was added and ^33P incorporation detected using a Perkin Elmer TopCount. After removing mean background values for all of the data points the data was fit using Prism software to obtain a Ki(app). Inhibition of JAK2 was measured as above except that final poly(Glu)4Tyr concentration was 15 μM and final ATP concentration was 12 μM.

JAK3 = JAK3 (Homo sapiens, UniProt P52333); experiment: JAK3 inhibition assay (standard radioactive enzyme assay); conditions: read-out: JAK3 Ki; average Ki if more than one value determined
Protocol: as §1

[1] = molecular target: full length Aurora-A (AA 1-403) (Homo sapiens, UniProt O14965); experiment: Aurora-A inhibition assay, standard coupled enzyme system; conditions: read-out: Aurora A Ki; average Ki if more than one value determined
Protocol: Compounds were screened for their ability to inhibit full length Aurora-A (AA 1-403) activity using a standard coupled enzyme system (Fox et al., Protein Sci. 7, pp. 2249 (1998)). Reactions were carried out in a solution containing 100 mM HEPES (pH 7.5), 10 mM MgCl2, 25 mM NaCl, 300 μM NADH, 1 mM DTT and 3% DMSO. Final substrate concentrations in the assay were 200 μM ATP (Sigma Chemicals, St Louis, Mo.) and 800 μM peptide (LRRASLG, American Peptide, Sunnyvale, Calif.). Reactions were carried out at 30° C. and 35 nM Aurora-A. Final concentrations of the components of the coupled enzyme system were 2.5 mM phosphoenolpyruvate, 200 μM NADH, 60 μg/ml pyruvate kinase and 20 μg/ml lactate dehydrogenase.
An assay stock buffer solution was prepared containing all of the reagents listed above with the exception of ATP and the test compound of interest. The assay stock buffer solution (60 μl) was incubated in a 96 well plate with 2 μl of the test compound of interest at final concentrations spanning 0.002 μM to 30 μM at 30° C. for 10 min. […] Rates of reaction were obtained using a Molecular Devices Spectramax plate reader (Sunnyvale, Calif.) over 10 min at 30° C. The Ki values were determined from the rate data as a function of inhibitor concentration using computerized nonlinear regression (Prism 3.0, Graphpad Software, San Diego, Calif.). […]

ROCK I (AA 6-553) = ROCK I (AA 6-553) (Homo sapiens, UniProt Q13464); experiment: ROCK inhibition assay, standard coupled enzyme system ("Enzyme"); conditions: read-out: ROCK Enzyme Ki; enzyme-linked assay
Protocol: Compounds were screened for their ability to inhibit ROCK I (AA 6-553) activity using a standard coupled enzyme system (Fox et al. (1998) Protein Sci. 7, 2249). Reactions were carried out in a solution containing 100 mM HEPES (pH 7.5), 10 mM MgCl2, 25 mM NaCl, 2 mM DTT and 1.5% DMSO. Final substrate concentrations in the assay were 45 μM ATP (Sigma Chemicals, St Louis, Mo.) and 200 μM peptide (American Peptide, Sunnyvale, Calif.). Reactions were carried out at 30° C. and 45 nM ROCK L. Final concentrations of the components of the coupled enzyme system were 2.5 mM phosphoenolpyruvate, 350 μM NADH, 30 μg/ml pyruvate kinase and 10 μg/ml lactate dehydrogenase.

ROCK = ROCK (Homo sapiens, UniProt Q13464); experiment: ROCK inhibition assay, standard radioactive enzyme assay ("33P"); conditions: read-out: ROCK 33P Ki
Protocol: Some compounds were screened for their ability to inhibit ROCK using a standard radioactive enzyme assay. Assays were carried out in a solution containing 100 mM HEPES (pH 7.5), 10 mM MgCl2, 25 mM NaCl, 2 mM DTT, and 1.5% DMSO. Final substrate concentrations in the assay were 13 μM [γ-^33P] ATP (25 mCi ^33P ATP/mmol ATP, Perkin Elmer, Cambridge, Mass./Sigma Chemicals, St Louis, Mo.) and 27 μM Myelin Basic Protein (MBP). Final enzyme concentration in the assay was 5 nM ROCK. Assays were carried out at room temperature. 1.5 μl of DMSO stock containing serial dilutions of the compound of the present invention (concentrations ranging from 10 μM to 2.6 nM) was placed in a 96 well plate. 50 μl of Solution 1 (100 mM HEPES (pH 7.5), 10 mM MgCl2, […]) was added to the plate. The reaction was initiated by addition of 50 μl of Solution 2 (100 mM HEPES (pH 7.5), 10 mM MgCl2, 4 mM DTT, […] and 10 nM ROCK). After 2 hours the reaction was quenched with 50 μL of 30% trichloroacetic acid (TCA, Fisher) containing 9 mM ATP. Transfer of 140 μL of the quenched reaction to a glass fiber filter plate (Corning, Cat. No. 3511) was followed by washing 3 times with 5% TCA. 50 μL of Optima Gold scintillation fluid (Perkin Elmer) was added and the plates were counted on a Top Count (Perkin Elmer). […]

Row | Structure (SMILES) | Ki (JAK2) | Ki (JAK3) | Ki [1] | Ki (ROCK I (AA 6-553)) | Ki (ROCK)
1 | CC(=O)N1[C@H](C)CN(c2nc(-c3c[nH]c4ncc(Cl)cc34)ccc2C(=O)O)C[C@@H]1C | < 500 nM | < 500 nM | < 500 nM | 500 to 5000 nM | 500 to 5000 nM
2 | Clc1cnc2[nH]cc(-c3cccc(OCc4ccccc4)c3)c2c1 | 500 to 5000 nM | < 500 nM |  | 500 to 5000 nM | 
